Experiment [1] deals with amytrophic lateral sclerosis (ALS). Particulars: background statement; cited from earlier work.
The subject of experiment [2] is SOD1(G93A) transgenic mouse model of ALS. Particulars: both gender.

Structures are written as SMILES.

The source of these data is patent US20100190751A1, “NOVEL COMBINATION OF NERAMEXANE FOR TREATMENT OF NERORDEGENERATIE DISORDERS” (MERZ PHARMA GmbH & CO. KGaA, priority 2007, published 2010).

As for `Nc1nc2ccc(OC(F)(F)F)cc2s1` [Riluzole, 2-amino-6-trifluromethoxybenzothiazole], the “Improvement of survival time as compared to placebo” value in experiment [1] is recorded as “up to 90 days”. In experiment [2], the “Disease Endstage - Survival, Median age” value was determined as 129.0 days. The “Disease Endstage - Survival, Mean age” value in experiment [2] (treatment from day 45, same doses as Table 1) was determined as 130.8 days. The “Disease Endstage - Survival, Difference compared to control” value in experiment [2] (versus vehicle control mean […]) is 1.5 days.
